Experimental findings from PubChem BioAssay (Tox21) are described below.

Protein sequences, listed by entry. Tags and fused reporters are not part of them.
UniProt P08659, whole entry: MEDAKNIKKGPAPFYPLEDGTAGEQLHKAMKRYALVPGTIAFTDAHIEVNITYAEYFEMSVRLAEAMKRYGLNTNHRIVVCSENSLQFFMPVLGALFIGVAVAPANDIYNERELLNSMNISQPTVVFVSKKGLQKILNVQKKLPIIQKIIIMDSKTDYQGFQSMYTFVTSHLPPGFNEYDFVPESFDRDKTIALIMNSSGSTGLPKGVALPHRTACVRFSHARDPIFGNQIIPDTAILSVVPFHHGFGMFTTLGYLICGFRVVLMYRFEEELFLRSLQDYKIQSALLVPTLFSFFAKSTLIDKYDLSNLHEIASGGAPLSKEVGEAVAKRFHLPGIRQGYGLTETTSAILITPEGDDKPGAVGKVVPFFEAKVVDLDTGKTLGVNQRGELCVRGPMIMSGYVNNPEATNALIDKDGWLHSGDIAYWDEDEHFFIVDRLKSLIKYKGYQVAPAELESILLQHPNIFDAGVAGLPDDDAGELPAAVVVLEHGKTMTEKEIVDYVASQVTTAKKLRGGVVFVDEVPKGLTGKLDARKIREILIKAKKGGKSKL
UniProt Q14994, whole entry: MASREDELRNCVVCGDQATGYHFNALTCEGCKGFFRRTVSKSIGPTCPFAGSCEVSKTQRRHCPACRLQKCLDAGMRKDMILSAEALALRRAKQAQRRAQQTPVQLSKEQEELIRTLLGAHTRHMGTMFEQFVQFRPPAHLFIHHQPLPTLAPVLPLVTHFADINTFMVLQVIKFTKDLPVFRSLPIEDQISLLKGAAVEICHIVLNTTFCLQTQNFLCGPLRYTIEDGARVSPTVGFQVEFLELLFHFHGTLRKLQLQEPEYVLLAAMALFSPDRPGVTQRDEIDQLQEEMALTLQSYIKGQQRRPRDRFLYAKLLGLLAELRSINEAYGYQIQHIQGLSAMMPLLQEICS
UniProt P16473, whole entry: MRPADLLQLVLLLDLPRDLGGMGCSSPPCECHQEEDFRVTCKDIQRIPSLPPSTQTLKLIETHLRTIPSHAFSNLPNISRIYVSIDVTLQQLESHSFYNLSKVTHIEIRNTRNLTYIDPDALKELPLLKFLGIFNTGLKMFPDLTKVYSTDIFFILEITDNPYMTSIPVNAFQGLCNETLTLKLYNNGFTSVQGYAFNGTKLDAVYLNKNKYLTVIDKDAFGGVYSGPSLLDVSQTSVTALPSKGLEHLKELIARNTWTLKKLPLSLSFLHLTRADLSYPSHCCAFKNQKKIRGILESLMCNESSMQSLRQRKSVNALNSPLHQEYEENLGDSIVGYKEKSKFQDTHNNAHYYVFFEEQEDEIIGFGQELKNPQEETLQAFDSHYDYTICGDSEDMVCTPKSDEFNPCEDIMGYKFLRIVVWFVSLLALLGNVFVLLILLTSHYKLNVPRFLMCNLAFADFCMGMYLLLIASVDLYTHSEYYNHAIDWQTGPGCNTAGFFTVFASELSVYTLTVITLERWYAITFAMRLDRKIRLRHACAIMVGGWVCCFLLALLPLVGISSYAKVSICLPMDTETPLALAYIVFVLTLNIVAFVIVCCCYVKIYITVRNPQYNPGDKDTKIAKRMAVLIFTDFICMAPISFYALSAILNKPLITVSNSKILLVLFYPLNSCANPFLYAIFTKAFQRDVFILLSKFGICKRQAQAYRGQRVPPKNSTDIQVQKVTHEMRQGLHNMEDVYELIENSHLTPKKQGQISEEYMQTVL

The entries are a selection whose mix differs from that of the whole data set. Records with an inconclusive call do not appear. The source made the active and inactive calls. Unless noted, the call rests on the fitted dose curve; in most records, active means well fitted curve in the direction sought with a large enough effect in the repeat runs; inconclusive means weak or mixed curves; inactive means no such curve, though single readings can be large; an effect the other way counts as inactive or inconclusive.

In experiment [1] the target is Luciferin 4-monooxygenase (Photinus pyralis) (UniProt P08659). The experiment can be described thus: qHTS assay to identify small molecule inhibitors of firefly luciferase (AID 1224835). Further: nearly all actives have a fitted effect of over 25% in size. The method in brief: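 Biochemical qHTS: compounds run as interplate titrations against purified firefly enzyme, with D-luciferin and ATP each at its KM concentration. Light output recorded by CCD imaging.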
On the technique in general: qHTS replaces the single test concentration by a dilution series.

A short description of experiment [2]: qHTS assay to identify small molecule antagonists of the constitutive androstane receptor (CAR) signaling pathway - cell viability counter screen (AID 1224837). Further: nearly all actives have a fitted effect of over 45% in size. The following applies: HepG2-CYP2B6-hCAR viability, CellTiter-Fluor, 23 h, co-treated with 50 nM CITCO; at 92.4 µM (top of the series) unless noted. The method in brief: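 HepG2 cells stably expressing hCAR and a CYP2B6-2.2kb reporter were plated and pre-incubated 4 hr at 37 C/5% CO2, then given compounds at 15 concentrations plus 50 nM CITCO (final). After 23 hr, viability was read by CellTiter-Fluor fluorescence.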

Experiment [3] addresses Nuclear receptor subfamily 1 group I member 3 (Homo sapiens) (UniProt Q14994). The experiment can be described thus: qHTS assay to identify small molecule antagonists of the constitutive androstane receptor (CAR) signaling pathway (AID 1224838). Further: nearly all actives have a fitted effect of over 40% in size. The following applies: HepG2-CYP2B6-hCAR luciferase, CITCO-stimulated, 24 h.
Experiment [4] has the same target. The experiment can be described thus: qHTS assay to identify small molecule agonists of the constitutive androstane receptor (CAR) signaling pathway (AID 1224839). Further: nearly all actives have a fitted effect of over 15% in size. Further: potency means the concentration at half of the fitted maximal effect.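 On activation: HepG2 cells stably carrying human CAR and a CYP2B6 luciferase reporter.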
Experiment [5] in a line: qHTS assay to identify small molecule antagonists of the estrogen related receptor signaling pathway with the pleiotropic PPARgamma coactivator (PGC) from Tox21 10K library - cell viability counter screen (AID 1224840; active means well fitted cell-killing curve with a large enough effect in the repeat runs, not every such curve was filed as active; further: nearly all actives have a fitted effect of over 40% in size). To be noted: PGC/ERR reporter cells viability, CellTiter-Fluor, 17.5 h. The method in brief: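 PGC/ERR cells were seeded at 2,000 cells/well and left 6 hours at 37 C/5% CO2 before pin-tool addition of compounds in DMSO. After 17.5 hours at 37 C, CellTiter-Fluor was added and fluorescence read 30 minutes later.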

Experiment [6] is described as follows: qHTS assay to identify small molecule agonists of the estrogen related receptor signaling pathway with the pleiotropic PPARgamma coactivator (PGC) from Tox21 10K library (AID 1224842). Further: nearly all actives have a fitted effect of over 15% in size. The following applies: PGC/ERR reporter cell line, luciferase ONE-Glo, 18 h. The gist of the method:
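PGC/ERR reporter cell line, 2,000 cells per well, incubated 6 h at 37 C before 23 nL compound in DMSO was added. After 18 h at 37 C, One-Glo luminescence read following 30 min at room temperature.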

Experiment [7] deals with Thyrotropin receptor (Homo sapiens) (UniProt P16473). Description: qHTS assay to identify small molecule agonists of the thyroid stimulating hormone receptor (TSHR) signaling pathway (AID 1224843; calls by dose curve; further: nearly all actives have a fitted effect of over 45% in size). To be noted: TSHR-HEK293 cells, cAMP HTRF, agonist mode, 30 min; at 42.5 µM (top of the series).
The nature of experiment [8]: qHTS assay to identify small molecule agonists of the hypoxia (HIF-1) signaling pathway - cell viability counter screen (AID 1224844; calls by dose curve; further: nearly all actives have a fitted effect of over 50% in size). To be noted: HRE-bla ME-180 viability, CellTiter-Glo luminescence, 17 h; at 76.8 µM (top of the series) unless noted. The gist of the method: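 HRE-bla ME-180 cells in medium with 0.5% dialyzed FBS were preincubated 5 hrs at 37C, exposed to compounds for 17 hrs, then viability was read as CellTiter-Glo luminescence after 30 min at room temperature, in the reporter wells.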

A short description of experiment [9]: qHTS assay to identify small molecule agonists of the hypoxia (HIF-1) signaling pathway (AID 1224846; active means well fitted activation curve with a large enough effect in the signal ratio in the repeat runs, not every such curve was filed as active; the % refers to the signal ratio). The following applies: HRE-bla ME-180 cells, beta-lactamase ratio, 17 h. The method in brief:
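HRE-bla ME-180 cells (beta-lactamase reporter under hypoxia response element) were plated at 2,000 cells/well in medium with 0.5% dialyzed FBS, rested 5 hrs, then given compounds in DMSO for 17 hrs at 37C, 5% CO2. Reporter induction was read with CCF4-AM FRET substrate.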

Experiment [10] can be described thus: qHTS assay to identify small molecule agonists of the estrogen related receptor (ERR) signaling pathway from Tox21 library (AID 1224849; calls by dose curve; further: nearly all actives have a fitted effect of over 15% in size). To be noted: ERR reporter cell line, ONE-Glo luciferase, 18 h. The method in brief: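 ERR reporter cell line (NTP) seeded, rested 6 h at 37 C/5% CO2, then pinned with Tox21 compounds in DMSO. After 18 h at 37 C, ONE-Glo luciferase luminescence was read following 30 min at room temperature.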

The nature of experiment [11]: qHTS RealTime-Glo MT Cell Viability Assay in HepG2 cells - 24 hour (AID 1224867). Further: nearly all actives have a fitted effect of over 50% in size. To be noted: RealTime-Glo luminescence. The method in brief: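 Viability was tracked continuously by NanoLuc luminescence from prosubstrate reduced by living HepG2 cells, at successive time points over 40 h of compound exposure. Cells with reagent were preincubated 5 h at 37 °C before compound addition.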

The nature of experiment [12]: A CellTox Green Cytotoxicity Assay to monitor cytotoxicity in HEK293 cells - 0 hour (AID 1224869). Further: nearly all actives have a fitted effect of over 50% in size. The method in brief:
(§1)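 HEK293 cells premixed with CellTox Green dye were seeded at 600 cells/well and left 5 h at 37 C/5% CO2 before pin transfer of 23 nL compound in DMSO. Fluorescence from dye bound to dead-cell DNA was read during 40 h treatment.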

A short description of experiment [13]: qHTS RealTime-Glo MT Cell Viability Assay in HepG2 cells - 8 hour (AID 1224873). Further: nearly all actives have a fitted effect of over 55% in size. To be noted: RealTime-Glo luminescence; at 76.8 µM (top of the series) unless noted. The gist of the method:
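HepG2 cells (600/well) mixed with RealTime-Glo MT reagent, settled 5 h at 37 C/5% CO2 before compound addition. Nonlytic NanoLuc luminescence from viable-cell prosubstrate reduction read repeatedly during 40 h treatment at 37 C.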

A short description of experiment [14]: A CellTox Green Cytotoxicity Assay to monitor cytotoxicity in HEK293 cells - 24 hour (AID 1224875). Further: nearly all actives have a fitted effect of over 45% in size. The gist of the method: as §1
A short description of experiment [15]: qHTS assay to identify small molecule antagonists of the estrogen related receptor (ERR) signaling pathway from Tox21 library - cell viability counter screen (AID 1224834). Further: nearly all actives have a fitted effect of over 30% in size. The following applies: ERR reporter cells viability, CellTiter-Fluor, 17.5 h; at 92.4 µM (top of the series). The method in brief:
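ERR reporter cells were plated 6 h before compound addition, then exposed to test compounds in DMSO for 17.5 h at 37 C. Viability was read as CellTiter-Fluor fluorescence after a 30-minute incubation at 37 C.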

Experiment [16] is described as follows: qHTS assay to identify small molecule agonists of the constitutive androstane receptor (CAR) signaling pathway - cell viability counter screen (AID 1224836). Further: nearly all actives have a fitted effect of over 45% in size. The following applies: HepG2-CYP2B6-hCAR viability, CellTiter-Fluor, 23 h; at 92.4 µM (top of the series); PK11195 added to every well. The method in brief:
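Double-stable HepG2 hepatoma cells (hCAR plus CYP2B6-2.2kb) are treated for 23 h at 37 C with test compounds in 15-point concentration series. PK11195 at 0.75 uM final is co-added. Cell viability is quantified by CellTiter-Fluor.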

Experiment [17] can be described thus: qHTS assay to identify small molecule antagonists of the estrogen related receptor signaling pathway with the pleiotropic PPARgamma coactivator (PGC) from Tox21 10K library (AID 1224841; call rule not given here; further: actives are mostly falling curves and most rising ones were filed inactive; nearly all actives have a fitted effect of over 50% in size).
Experiment [18] is described as follows: qHTS assay to identify small molecule agonists of H2AX - cell viability counter screen (AID 1224847; calls by dose curve;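 further: wild-type CHO-K1 cells; top concentration of the series differs between compounds; nearly all actives have a fitted effect of over 30% in size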). The following applies: CHO-K1 viability, CellTiter-Glo luminescence, 3 h; at 154 µM (top of the series) unless noted. The method in brief:
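For this counter screen, overnight-attached CHO-K1 cells received test compounds (15 concentrations, 0.76% DMSO final); 3 hr later at 37C, CellTiter-Glo reagent was added and luminescence recorded after 30 min at room temperature.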

A short description of experiment [19]: qHTS assay to identify small molecule antagonists of the estrogen related receptor (ERR) signaling pathway from Tox21 library (AID 1224848). Further: nearly all actives have a fitted effect of over 50% in size. The gist of the method: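 Luminescent reporter read-out (ONE-Glo) from NTP's ERR cell line after 18 h treatment at 37 C with DMSO-dissolved Tox21 compounds; cells pre-plated 6 h beforehand at 2,000 per well.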
Experiment [20] in a line: qHTS RealTime-Glo MT Cell Viability Assay in HEK293 cells - 32 hour (AID 1224868). To be noted: RealTime-Glo luminescence, at 76.8 µM (top of the series). The gist of the method:
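Viability tracked continuously by luminescence as live cells reduce a prosubstrate for NanoLuc; HEK293 cells preincubated 5 h, compound-treated at 37 C, and read at 0, 8, 16, 24, 32 and 40 h.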
On the % scale 0 is the no-effect control and ±100 the full control effect.

In the case of `Cc1cccc([N+](=O)[O-])c1[N+](=O)[O-]`, the Potency entry in experiment [1], in [12] and in experiment [14] was “inactive” each time. Further, the figures for the activity change, negative = cytotoxicity in experiment [2], in experiment [8] and in experiment [11] (at 35.3 µM (top of the series)) were inactive: -2.78% [at 42.5 µM], inactive: 15.4% [at 35.3 µM] and inactive: 5.37%, respectively. The activity, negative = inhibition in [3] (at 42.5 µM (top of the series)) was inactive: 120%. The Potency in experiment [4] is active: 18.3 µM. For the same compound, the viability change, negative = cytotoxic was inactive: -9.83% in [5] (at 42.5 µM (top of the series)) and inactive: 4.8% [at 35.3 µM] in experiment [13]. Also, the activation in experiment [6] (at 42.5 µM (top of the series)) is inactive: -2.27%; in experiment [7], inactive: 7.96%; in [9] (at 35.5 µM (top of the series)), inactive: -1.11%. Besides, the activity change, positive = activation in experiment [10] (at 42.5 µM (top of the series)) was inactive: -17.3%.

On to `CP(=O)(O)OCCC[Si](O)(O)O`, for which the viability change, negative = cytotoxic in experiment [15] was inactive: 5.68%; in [16], inactive: 2.98%; in experiment [5] (at 92.4 µM (top of the series)), inactive: 14.6%; in [13] it was inactive: 1.68%. In addition, the Potency result in experiment [1], in experiment [4], in experiment [17], in [19], in experiment [12] and in experiment [14] was “inactive” each time. For the same compound, the activity change, negative = cytotoxicity in experiment [2] was inactive: 6.65%; in [8] it was inactive: 0.47%; in experiment [18] it was inactive: 0.28%; in [11] (at 76.8 µM (top of the series)), inactive: 1.34%. Besides, in experiment [3] (at 92.4 µM (top of the series)), the activity, negative = inhibition was inactive: -0.532%. Moreover, the activation was inactive: 5.14% in [6] (at 92.4 µM (top of the series)) and inactive: -1.3% in experiment [9] (at 76.8 µM (top of the series)). Besides, in experiment [10] (at 92.4 µM (top of the series)), the activity change, positive = activation was inactive: 15.2%. For the same compound, the activity change, negative = cytotoxic in experiment [20] is inactive: -0.576%.
